Source: paper PMC10999558, “Analyzing resistome in soil and Human gut: a study on the characterization and risk evaluation of antimicrobial peptide resistance” (Frontiers in Microbiology, 2024)

What was measured:
Format in all cases: cell-based, Escherichia coli
Conditions in all cases: MHB, 37°C, 24 h, triplicate
E. coli JM109 = experiment: MIC, broth microdilution, retransformed E. coli JM109
Procedure: (§1) Escherichia coli DH5α, E. coli BL21(DE3), and E. coli JM109 were utilized in this study.
(§2) The MICs were determined using the broth microdilution method in 96-well microtiter plates ([Wiegand et al., 2008]). In brief, a 1:100 dilution of the mid-exponential phase bacterial culture (OD600 = 0.5), consisting of 5 μL (1 × 10^5 CFU/mL), was introduced into polypropylene 96-well plates. These plates contained a two-fold dilution series of AMP in a total volume of 100 μL MHB per well. The incubation of the plates occurred at 37°C in a humidity chamber. The MIC was identified as the lowest concentration that hindered visible bacterial growth after 24 h of incubation. Each experiment was conducted in triplicate.
(§3) Before washing down the colonies, we randomly selected two clones from each plate containing distinct AMP. Colony PCRs were conducted using M13 primer pairs to validate the presence of inserts and determine their sizes. The selected colonies were then subjected to sequencing. The specific details are provided in Supplementary Table S2. Following that, plasmids were isolated using the Plasmid Midiprep Kit (Zomanbio, ZP103) following the manufacturer’s guidelines. After the plasmids were successfully reintroduced into E. coli JM109 and E. coli BL 21(DE3), the MICs of the transformed strains against the AMP used for selection were tested. This testing process was carried out in triplicate.
(§4) Following validation, the colonies displaying resistance underwent additional testing via MIC assessments for the remaining four AMPs that were not employed during the selection process. This experimental procedure was carried out in triplicate.

E. coli DH5α = experiment: MIC, broth microdilution, E. coli DH5α carrying pUC118 or resistance-conferring plasmids
Procedure: as §1, §2, §4

E. coli BL21(DE3) = experiment: MIC, broth microdilution, retransformed E. coli BL21(DE3)
Procedure: as §1, §2, §3, §4

Cathelicidin-DM [SA37] showed an MIC (E. coli JM109; colony pUC118-FCST1-JM109 (feces insert 1 selected against colistin)) of 8 µg/mL, an MIC (E. coli JM109; colony pUC118-FCST2-JM109 (feces insert 2 selected against colistin)) of 8 µg/mL and an MIC (E. coli JM109; colony pUC118-FGQ1-JM109 (feces insert 1 selected against melittin)) of 16 µg/mL. It also gave an MIC (E. coli JM109; colony pUC118-FGQ2-JM109 (feces insert 2 selected against melittin)) of 8 µg/mL, an MIC (E. coli JM109; colony pUC118-FIB1-JM109 (feces insert 1 selected against iseganan)) of 8 µg/mL and an MIC (E. coli JM109; colony pUC118-FIB2-JM109 (feces insert 2 selected against iseganan)) of 16 µg/mL. The MIC (E. coli JM109; colony pUC118-FPB1-JM109 (feces insert 1 selected against polymyxin B)) was 8 µg/mL, the MIC (E. coli JM109; colony pUC118-FPB2-JM109 (feces insert 2 selected against polymyxin B)) was 8 µg/mL and the MIC (E. coli JM109; colony pUC118-FSA1-JM109 (feces insert 1 selected against cathelicidin-DM)) was 16 µg/mL. For the same substance, the MIC (E. coli JM109; colony pUC118-FSA2-JM109 (feces insert 2 selected against cathelicidin-DM)) was 16 µg/mL, the MIC (E. coli JM109; colony pUC118-JM109 (control, no insert)) was 8 µg/mL and the MIC (E. coli JM109; colony pUC118-SCST1-JM109 (soil insert 1 selected against colistin)) was 8 µg/mL. For the same substance, the MIC (E. coli JM109; colony pUC118-SCST2-JM109 (soil insert 2 selected against colistin)) was 8 µg/mL, the MIC (E. coli JM109; colony pUC118-SGQ1-JM109 (soil insert 1 selected against melittin)) was 16 µg/mL and the MIC (E. coli JM109; colony pUC118-SGQ2-JM109 (soil insert 2 selected against melittin)) was 16 µg/mL. It also gave an MIC (E. coli JM109; colony pUC118-SIB1-JM109 (soil insert 1 selected against iseganan)) of 8 µg/mL, an MIC (E. coli JM109; colony pUC118-SIB2-JM109 (soil insert 2 selected against iseganan)) of 8 µg/mL and an MIC (E. coli JM109; colony pUC118-SPB1-JM109 (soil insert 1 selected against polymyxin B)) of 8 µg/mL. It also gave an MIC (E. coli JM109; colony pUC118-SPB2-JM109 (soil insert 2 selected against polymyxin B)) of 8 µg/mL, an MIC (E. coli JM109; colony pUC118-SSA1-JM109 (soil insert 1 selected against cathelicidin-DM)) of 16 µg/mL and an MIC (E. coli JM109; colony pUC118-SSA2-JM109 (soil insert 2 selected against cathelicidin-DM)) of 16 µg/mL. The MIC (E. coli DH5α; E. coli DH5α containing pUC118 plasmids) was 16 µg/mL, the MIC (E. coli DH5α; colony pUC118-DH5α (control, no insert)) was 16 µg/mL and the MIC (E. coli DH5α; colony pUC118-FCST1-DH5α (feces insert 1 selected against colistin)) was 16 µg/mL. For the same substance, the MIC (E. coli DH5α; colony pUC118-FCST2-DH5α (feces insert 2 selected against colistin)) was 16 µg/mL, the MIC (E. coli DH5α; colony pUC118-FGQ1-DH5α (feces insert 1 selected against melittin)) was 32 µg/mL and the MIC (E. coli DH5α; colony pUC118-FGQ2-DH5α (feces insert 2 selected against melittin)) was 16 µg/mL. For the same substance, the MIC (E. coli DH5α; colony pUC118-FIB1-DH5α (feces insert 1 selected against iseganan)) was 16 µg/mL, the MIC (E. coli DH5α; colony pUC118-FIB2-DH5α (feces insert 2 selected against iseganan)) was 32 µg/mL and the MIC (E. coli DH5α; colony pUC118-FPB1-DH5α (feces insert 1 selected against polymyxin B)) was 16 µg/mL. It also gave an MIC (E. coli DH5α; colony pUC118-FPB2-DH5α (feces insert 2 selected against polymyxin B)) of 16 µg/mL, an MIC (E. coli DH5α; colony pUC118-FSA1-DH5α (feces insert 1 selected against cathelicidin-DM)) of 32 µg/mL and an MIC (E. coli DH5α; colony pUC118-FSA2-DH5α (feces insert 2 selected against cathelicidin-DM)) of 32 µg/mL. For the same substance, the MIC (E. coli DH5α; colony pUC118-SCST1-DH5α (soil insert 1 selected against colistin)) was 16 µg/mL, the MIC (E. coli DH5α; colony pUC118-SCST2-DH5α (soil insert 2 selected against colistin)) was 16 µg/mL and the MIC (E. coli DH5α; colony pUC118-SGQ1-DH5α (soil insert 1 selected against melittin)) was 32 µg/mL. It also gave an MIC (E. coli DH5α; colony pUC118-SGQ2-DH5α (soil insert 2 selected against melittin)) of 32 µg/mL, an MIC (E. coli DH5α; colony pUC118-SIB1-DH5α (soil insert 1 selected against iseganan)) of 16 µg/mL and an MIC (E. coli DH5α; colony pUC118-SIB2-DH5α (soil insert 2 selected against iseganan)) of 16 µg/mL. The MIC (E. coli DH5α; colony pUC118-SPB1-DH5α (soil insert 1 selected against polymyxin B)) was 16 µg/mL, the MIC (E. coli DH5α; colony pUC118-SPB2-DH5α (soil insert 2 selected against polymyxin B)) was 16 µg/mL and the MIC (E. coli DH5α; colony pUC118-SSA1-DH5α (soil insert 1 selected against cathelicidin-DM)) was 32 µg/mL. For the same substance, the MIC (E. coli DH5α; colony pUC118-SSA2-DH5α (soil insert 2 selected against cathelicidin-DM)) was 32 µg/mL, the MIC (E. coli BL21(DE3); colony pUC118-BL21(DE3) (control, no insert)) was 16 µg/mL and the MIC (E. coli BL21(DE3); colony pUC118-FCST1-BL21(DE3) (feces insert 1 selected against colistin)) was 16 µg/mL. The MIC (E. coli BL21(DE3); colony pUC118-FCST2-BL21(DE3) (feces insert 2 selected against colistin)) was 16 µg/mL, the MIC (E. coli BL21(DE3); colony pUC118-FGQ1-BL21(DE3) (feces insert 1 selected against melittin)) was 32 µg/mL and the MIC (E. coli BL21(DE3); colony pUC118-FGQ2- BL21(DE3) (feces insert 2 selected against melittin)) was 16 µg/mL. It also gave an MIC (E. coli BL21(DE3); colony pUC118-FIB1-BL21(DE3) (feces insert 1 selected against iseganan)) of 16 µg/mL, an MIC (E. coli BL21(DE3); colony pUC118-FIB2-BL21(DE3) (feces insert 2 selected against iseganan)) of 32 µg/mL and an MIC (E. coli BL21(DE3); colony pUC118-FPB1-BL21(DE3) (feces insert 1 selected against polymyxin B)) of 16 µg/mL. It also gave an MIC (E. coli BL21(DE3); colony pUC118-FPB2-BL21(DE3) (feces insert 2 selected against polymyxin B)) of 16 µg/mL, an MIC (E. coli BL21(DE3); colony pUC118-FSA1-BL21(DE3) (feces insert 1 selected against cathelicidin-DM)) of 32 µg/mL and an MIC (E. coli BL21(DE3); colony pUC118-FSA2-BL21(DE3) (feces insert 2 selected against cathelicidin-DM)) of 32 µg/mL. The MIC (E. coli BL21(DE3); colony pUC118-SCST1-BL21(DE3) (soil insert 1 selected against colistin)) was 16 µg/mL, the MIC (E. coli BL21(DE3); colony pUC118-SCST2-BL21(DE3) (soil insert 2 selected against colistin)) was 16 µg/mL and the MIC (E. coli BL21(DE3); colony pUC118-SGQ1-BL21(DE3) (soil insert 1 selected against melittin)) was 16 µg/mL. The MIC (E. coli BL21(DE3); colony pUC118-SGQ2-BL21(DE3) (soil insert 2 selected against melittin)) was 32 µg/mL, the MIC (E. coli BL21(DE3); colony pUC118-SIB1-BL21(DE3) (soil insert 1 selected against iseganan)) was 16 µg/mL and the MIC (E. coli BL21(DE3); colony pUC118-SIB2-BL21(DE3) (soil insert 2 selected against iseganan)) was 16 µg/mL. It also gave an MIC (E. coli BL21(DE3); colony pUC118-SPB1-BL21(DE3) (soil insert 1 selected against polymyxin B)) of 16 µg/mL, an MIC (E. coli BL21(DE3); colony pUC118-SPB2-BL21(DE3) (soil insert 2 selected against polymyxin B)) of 16 µg/mL and an MIC (E. coli BL21(DE3); colony pUC118-SSA1-BL21(DE3) (soil insert 1 selected against cathelicidin-DM)) of 32 µg/mL. It also gave an MIC (E. coli BL21(DE3); colony pUC118-SSA2-BL21(DE3) (soil insert 2 selected against cathelicidin-DM)) of 32 µg/mL.
